Molecular target: HLA-DR (DRA1*01:01 / DRB1*12:01), soluble knob-into-hole Fc heterodimer (human)
Assay: ELISA

Substance | Kd [µM]
RBD371-385 | > 10
RBD431-445 | > 10
RBD523-537 | > 10

Further lines, results first:

Kd [µM] | Substance
> 10 | RBD399-413
> 10 | RBD423-437
